Results taken from PMC6733930.
Where a chain is given by its changes, count along the chain named. Names and notes keep the numbering of the source. Blank lines part the entries; values can stand above or below the molecule they belong to.

Amino acid sequences for entries named in this document (tags omitted). A change or cut given only in a name is not applied to a line headed by its entry.
UniProt P32851, whole entry, chain 1 of 3: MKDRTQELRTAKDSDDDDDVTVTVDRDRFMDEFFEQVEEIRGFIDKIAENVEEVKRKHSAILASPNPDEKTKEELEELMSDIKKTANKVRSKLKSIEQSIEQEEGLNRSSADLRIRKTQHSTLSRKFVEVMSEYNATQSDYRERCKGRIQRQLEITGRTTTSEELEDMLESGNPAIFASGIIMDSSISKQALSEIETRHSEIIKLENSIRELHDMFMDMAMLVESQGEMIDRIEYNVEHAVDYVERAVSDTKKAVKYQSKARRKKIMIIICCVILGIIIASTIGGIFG
UniProt P63041: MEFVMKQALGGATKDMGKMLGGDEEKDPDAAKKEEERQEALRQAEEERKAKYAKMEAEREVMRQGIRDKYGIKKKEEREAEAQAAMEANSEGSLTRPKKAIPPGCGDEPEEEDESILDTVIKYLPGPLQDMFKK

What was measured:
[1] = target: trans-SNARE complex in nanodiscs with dye-labelled cysteine-free syntaxin1a (cysteine at residue 203) (UniProt P32851); assay: single-molecule colocalisation (three-colour TIRF microscopy); trans-SNARE NDs (0.5 µM) incubated with C2AB (1 µM) and complexin I (1 µM) at RT for 10 min, diluted to 10 pM, immobilised on a glass slide, unbound protein washed out; 0.5 mM CaCl2, 100 mM KCl, 25 mM HEPES pH 7.4; only single trans-SNARE complexes analysed
[2] = target: trans-SNARE complex in nanodiscs (t-SNARE heterodimer in one nanodisc, v-SNARE in another), P32851;P60881;P63045; assay: HaloTag pull-down of nanodiscs, Coomassie gel densitometry; settings: chain shown with the change, read off a plot

- percent of single trans-SNARE complexes with both C2AB and complexin bound [1]: 5.3%
Molecule: synaptotagmin 1 C2AB (residues 96-421), cysteine-free, cysteine at residue 234, dye-labelled (from UniProt P21707 96-421) (domain or fragment)

- percent of single trans-SNARE complexes with both C2AB and complexin bound [1]: 5.3%
Molecule: complexin I, cysteine-free, cysteine at residue 131, labelled with Alexa Fluor 488 (from UniProt P63041 1-134) (natural protein)

B1: His6-HaloTag synaptotagmin 1 C2B (aa 273-421), wild type, P21707 R398Q; R399Q (protein)
chain: LGDICFSLRYVPTAGKLTVVILEAKNLKKMDVGGLSDPYVKIHLMQNGKRLKKKKTTIKKNTLNPYYNESFSFEVPFEQIQKVQVVVTVLDYDKIGKNDAIGKVFVGYNSTGAELRHWSDMLANPQQPIAQWHTLQVEEEVDAMLAVKK
- response (relative t-SNARE binding) ([2]; +Ca2+, parent: est. 3.5): 2
- response (relative t-SNARE binding) ([2]; -Ca2+, parent: est. 1.0): 0.45

B2: His6-HaloTag synaptotagmin 1 C2B (aa 273-421), wild type, P21707 K326E; K327E (protein)
chain: B1 chain with K54E, K55E, Q126R, Q127R
- response (relative t-SNARE binding) ([2]; +Ca2+, parent: est. 3.5): 0.7
- response (relative t-SNARE binding) ([2]; -Ca2+, parent: est. 1.0): 0.3
